# scFv variants of Ab-95 (light chain) against a SARS-CoV-2 spike peptide

All variants were tested on one target, the spike HR2 peptide PDVDLGDISGINAS (SARS-CoV-2).

Ab-95 is the parent antibody, in scFv form: VH, then three GGGGS repeats, then VL. The heavy chain is unchanged in all variants.
VH: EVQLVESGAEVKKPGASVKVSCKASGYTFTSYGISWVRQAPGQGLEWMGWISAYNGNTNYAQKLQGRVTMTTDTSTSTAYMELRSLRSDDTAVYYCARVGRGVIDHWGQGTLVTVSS
VL: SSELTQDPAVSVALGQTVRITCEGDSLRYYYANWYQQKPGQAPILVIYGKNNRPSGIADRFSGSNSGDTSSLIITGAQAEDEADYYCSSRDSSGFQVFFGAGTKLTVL

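The starting antibody came from a phage panning campaign against this peptide. The library (AAYL52) carries one to three amino acid substitutions per variant, with no insertions or deletions. AlphaSeq pools MATa yeast showing the antibodies with MATalpha yeast showing the peptide. Pairs that bind mate more often; barcode pairs of the diploids are counted by sequencing. The ratio of observed to expected reads was calibrated, replicate by replicate, on BCL2-family standards whose Kd was known from biolayer interferometry. Mating was done three times.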

Each variant is given by its three light chain CDRs, as the data file delimits them; those of the parent are EGDSLRYYYAN, GKNNRPS, SSRDSSGFQVF.
Numbers give log10(Kd / nM), so 0 is 1 nM and 3 is 1 µM. Smaller is tighter.
A mean of the replicates is given; it leaves out those without a signal.
"not detected" means that the variant was in the library but no mating with the target was seen in any replicate; the authors take this as a sign of poor binding, and no number exists.

mean log10 Kd (nM) | seen in | CDR-L1 | CDR-L2 | CDR-L3
3.70 | 1/3 | EGDSLRYYYFN | GKNNRPS | SSMDHSGFQVF
1.73 | 3/3 | KGDSLRYYYAN | GKNNRPI | SSRDSSGFQVF
2.52 | 3/3 | EGASLRYIYAN | GKNNRPV | SSRDSSGFQVF
4.03 | 2/3 | ERDSDRYYYAN | GKPNRPS | SSRDSSGFQVF
not detected | 0/3 | EFDSLRYYYAN | GKNNNPS | SDRDSSGFQVF
4.01 | 3/3 | EVDSLRYYMAN | GKWNRPS | SSRDSSGFQVF
1.67 | 3/3 | EGKSLRNYYAN | GKNNRPS | SSRDSGGFQVF
3.55 | 3/3 | EGDSSRYYYAN | GKNRRPS | SSRNSSGFQVF
0.55 | 3/3 | EGDSLRYNYAN | GKNNRNG | SSRDSSGFQVF
2.49 | 3/3 | EGDSLRYYYAN | GPNNRPS | GSRDSSGAQVF
3.58 | 2/3 | EEDSLRYYYAN | GPNNRPS | SSRDSMGFQVF
4.40 | 2/3 | EGDSARYYYAN | GKNNRPS | SCRDSSQFQVF
4.64 | 3/3 | DGDSLRYYYAP | GKNNRPS | SSRISSGFQVF
4.21 | 1/3 | EGDSIRYYYAN | GKNNRPS | SQSDSSGFQVF
not detected | 0/3 | EGDSGRYYYAN | GYNNRPS | SSPDSSGFQVF
4.60 | 1/3 | EGDSLRYYYYN | GKNNRPS | SSRDSSRFQVM
3.73 | 2/3 | EGTSLRYYYAN | VKNNRPS | SSRDSSGFWVF
5.23 | 1/3 | EGDSLRYYYAN | YVNNRLS | SSRDSSGFQVF
4.36 | 2/3 | EGDSLRYYYPN | GKNNRPS | KSRDISGFQVF
3.39 | 3/3 | LGDSLRYYYAN | GKNNRGS | SSRDSSGLQVF
2.40 | 3/3 | CGDSLRCYYAN | GKNNRPS | SSRDSSGYQVF
2.34 | 3/3 | HGDSLEYYYAN | GKNNRPS | SSRDMSGFQVF
not detected | 0/3 | EGDSLRYYYAN | RKNNRPG | SSRDSSKFQVF
2.06 | 3/3 | EGDSLRYYYAN | GQNNRPS | SSRDISGFQVF
3.88 | 3/3 | EGDSLRYLFAN | GKNNRPS | SSRDSSGPQVF
3.99 | 1/3 | EQDSLRYYYAN | GKNNRWS | SSRDSSPFQVF
4.94 | 2/3 | EGDSLRYYYAN | GKHNRPS | SSNDSSGFQVF
1.51 | 3/3 | CGDSLRYQYAN | EKNNRPS | SSRDSSGFQVF
3.57 | 2/3 | EGDSLRYYYHN | GKNWRPS | SSRDSSGFQVF
3.47 | 3/3 | EGDSLRYYYAQ | GKGNRPS | SSRDSSGFYVF
not detected | 0/3 | EGDSLRWYYAC | GKNNRPS | SSRDSSGFVVF
4.40 | 1/3 | LGDSLRYYYAN | GKNNRPS | SDRDWSGFQVF
4.45 | 2/3 | EGDSVRIYYAN | GKNNRPS | SSRDSSGFQGF
3.49 | 1/3 | EGDSLRYYYAN | MKNNRPS | SSWDSLGFQVF
2.75 | 3/3 | EGDSLRYYYAN | GKNTRMS | SSRDSSGHQVF
3.43 | 2/3 | EGDSLRQYYAN | GWNCRPS | SSRDSSGFQVF
2.83 | 3/3 | EMDSLRPYYAN | GKNNRPS | SSRDSKGFQVF
1.83 | 3/3 | EGDSLRYYYAN | GKNNRPS | KSRMSSGFQYF
1.87 | 3/3 | NGDSLRYRYAN | GKNNSPS | SSRDSSGFQVF
not detected | 0/3 | EGDSLRYYYAN | PKNNRPS | SSRDSSSFQKF
1.81 | 3/3 | EGIPLRYMYAN | GKNNRPS | SSRDSSGFQVF
1.03 | 3/3 | EGVSLRYYEAN | GHNNRPS | SSRDSSGFQVF
2.26 | 3/3 | CGDSLRSYLAN | GKNNRPS | SSRDSSGFQVF
3.51 | 2/3 | EGDSLRYYYAN | GKNNRPH | SSRDSSGFQVN
4.07 | 3/3 | EGDSLRSMYAG | GKNNRPS | SSRDSSGFQVF
not detected | 0/3 | EGDSLRHYYAN | GKNNRPS | SSRDSSGFQWT
2.00 | 3/3 | EIDSLRYYDAN | GKVNRPS | SSRDSSGFQVF
2.09 | 3/3 | EGDSLRYYYAN | GPNNRPS | SWWDSSGFQVF
4.28 | 1/3 | EGDWLRYYYAN | GKKNRPS | SSRDSSGVQVF
4.02 | 3/3 | EGDSLAYYYAN | GKNNRPS | SSRDSGGFQVF
4.68 | 3/3 | EGDSLHYYYAN | GKRNRPS | SSRHSSGFQVF
3.12 | 3/3 | EGDSQRYYYAN | GTNNRPS | SGRDSSGFQVF
2.51 | 3/3 | EADSLGYYYAN | GKNNRPS | SSRDSSKFQVF
4.49 | 1/3 | EGDYLRYYYAN | GKNNRPS | TSRDSSGFQVC
4.36 | 2/3 | EPDSLRYYYAN | GKNNRPS | SSSDSSGFQVC
3.39 | 3/3 | HGDSQRYYYAN | GKNNRPS | SSRDSAGFQVF
4.24 | 2/3 | EGDSWRYYYAN | GKNNLPS | SSRDSSGFQVL
3.96 | 2/3 | EGDSTRYYYAN | GKNNRPS | SSRDSSQFVVF
5.57 | 1/3 | EGDSLRYYYAN | GKNNRRS | SSKDTSGFQVF
2.56 | 3/3 | EGDSLRYYYAN | GKNNRPS | ESRDSSMRQVF
3.26 | 3/3 | CGDSLRYYYAN | GKNNREI | SSRDSSGFQVF
3.97 | 3/3 | EGPSCRYYYAN | GKNNRPS | SSRDSSGFQVF
not detected | 0/3 | EGDSLRYYYAN | GKNNCPV | SRRDSSGFQVF
not detected | 0/3 | EGDHLRYYYAN | IKNNRPS | SSRDSCGFQVF
3.25 | 2/3 | EGDSLLYYYAN | GKINRPS | SSRDSSGEQVF
3.21 | 3/3 | EGDSHRYYYAN | GKNNRPS | SSRDSSGFQVM

Excerpt, the first 5 entries:

{"CDR-L1": "EGDSLRYYYFN", "CDR-L2": "GKNNRPS", "CDR-L3": "SSMDHSGFQVF", "mean log10 Kd (nM)": "3.70", "seen in": "1/3"}
{"CDR-L1": "KGDSLRYYYAN", "CDR-L2": "GKNNRPI", "CDR-L3": "SSRDSSGFQVF", "mean log10 Kd (nM)": "1.73", "seen in": "3/3"}
{"CDR-L1": "EGASLRYIYAN", "CDR-L2": "GKNNRPV", "CDR-L3": "SSRDSSGFQVF", "mean log10 Kd (nM)": "2.52", "seen in": "3/3"}
{"CDR-L1": "ERDSDRYYYAN", "CDR-L2": "GKPNRPS", "CDR-L3": "SSRDSSGFQVF", "mean log10 Kd (nM)": "4.03", "seen in": "2/3"}
{"CDR-L1": "EFDSLRYYYAN", "CDR-L2": "GKNNNPS", "CDR-L3": "SDRDSSGFQVF", "mean log10 Kd (nM)": "not detected", "seen in": "0/3"}

Nonspecific signal, from three strains lacking the peptide, appeared in 28% of pairings of library AAYL52, centred on 3.91 (5% of these signals below 2.90); values are not corrected for it.
Parent in this assay: reference entry 2.31, copy in this library 2.25.

Values reported by Engelhart et al. 2022, doi:10.1038/s41597-022-01779-4 (FLAb copy).